Laboratory results: patent US20260285847A1, “SYMMETRIC AMINOINDOLE-LINKED TRIAZINE FOR A DUAL EFFECT ON ALPHA-SYNUCLEIN AND TAU ISOFORM 2N4R FIBRILLIZATION” (Purdue Research Foundation, priority 2023, published 2026)
Like-named read-outs stand apart in the source and are kept apart here.

The chains behind the UniProt entries cited, without tags or fusion partners. Residues count along the entry.
UniProt P10636, 1-412 isoform P10636-7: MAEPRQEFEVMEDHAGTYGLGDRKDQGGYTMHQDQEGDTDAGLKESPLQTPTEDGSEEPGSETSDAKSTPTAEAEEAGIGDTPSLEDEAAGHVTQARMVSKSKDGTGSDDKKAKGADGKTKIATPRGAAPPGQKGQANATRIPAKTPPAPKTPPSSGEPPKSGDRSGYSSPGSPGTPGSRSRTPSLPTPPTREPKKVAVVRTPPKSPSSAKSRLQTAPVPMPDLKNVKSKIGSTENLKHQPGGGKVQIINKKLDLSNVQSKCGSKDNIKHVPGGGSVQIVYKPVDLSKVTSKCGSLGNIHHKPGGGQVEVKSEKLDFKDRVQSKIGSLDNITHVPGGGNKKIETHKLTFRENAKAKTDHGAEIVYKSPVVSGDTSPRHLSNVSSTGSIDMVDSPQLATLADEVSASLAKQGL

Target: hyperphosphorylated tau (p-tau) isoform 1N4R (Homo sapiens, UniProt P10636)
Details: p-tau 6 μM

| SMILES | p-tau isoform 1N4R fibril formation (fluorescence intensity, in words) (compound 48 μM) | p-tau isoform 1N4R fibril formation (fluorescence intensity, in words) (compound 98 μM) |
| --- | --- | --- |
| c1cc(Nc2ncnc(Nc3cccc4[nH]ccc34)n2)c2cc[nH]c2c1 [Compound 10, N2,N4-bis(1H-indol-4-yl)-1,3,5-triazine-2,4-diamine] | did not reduce the fluorescence intensity at the same level than apomorphine | – |
| c1cc(Oc2ncnc(Oc3cccc4[nH]ccc34)n2)c2cc[nH]c2c1 [Compound 7, 4-{[4-(1H-indol-4-yloxy)-1,3,5-triazin-2-yl]oxy}-1H-indole] | did not reduce the fluorescence intensity at the same level than apomorphine | did not reduce the fluorescence intensity at the same level than apomorphine |
